# Literature values in paper PMC7150891, “Mertansine Inhibits mRNA Expression and Enzyme Activities of Cytochrome P450s and Uridine 5′-Diphospho-Glucuronosyltransferases in Human Hepatocytes and Liver Microsomes” (Pharmaceutics, 2020).
# System: HER2-positive metastatic breast cancer
# Details: patients who received T-DM1 treatment; cited from earlier work
substance,measurement,value
trastuzumab emtansine [T-DM1],Risk ratio of hepatotoxicity and thrombocytopenia,significantly higher
